Assay results published in patent publication US20030220310A1, “Epoxy-steroidal aldosterone antagonist and calcium channel blocker combination therapy for treatment of congestive heart failure” (priority 2003, published 2003).

Assay: Thermogravimetric analysis of solvates (desolvation)
Format: physicochemical
Conditions: eplerenone crystalline solvate; extrapolated from final solvent weight loss step, TGA, 10° C./minute, nitrogen purge
Description: Thermogravimetric analysis of solvates was performed using a TA Instruments TGA 2950 thermogravimetric analyzer. Samples were placed in an unsealed aluminum pan under nitrogen purge. Starting temperature was 25° C. with the temperature increased at a rate of about 10° C./minute.
The unit cell of the solvate is composed of four eplerenone molecules. […] The unit cell of Form H is composed of four eplerenone molecules. The unit cell of Form L is composed of two eplerenone molecules. The solvate unit cells are converted during desolvation into Form H and/or Form L unit cells when the eplerenone molecules undergo translation and rotation to fill the spaces left by the solvent molecules.

Desolvation Temperature: 129 °C
SMILES: CCCO [n-Propanol]
